This note sets out measurements from paper PMC2957851 (ACS Chemical Neuroscience, 2010).

Amino acid sequences for entries named in this document (tags omitted). Residues count along the entry.
UniProt P31424, 21-1203: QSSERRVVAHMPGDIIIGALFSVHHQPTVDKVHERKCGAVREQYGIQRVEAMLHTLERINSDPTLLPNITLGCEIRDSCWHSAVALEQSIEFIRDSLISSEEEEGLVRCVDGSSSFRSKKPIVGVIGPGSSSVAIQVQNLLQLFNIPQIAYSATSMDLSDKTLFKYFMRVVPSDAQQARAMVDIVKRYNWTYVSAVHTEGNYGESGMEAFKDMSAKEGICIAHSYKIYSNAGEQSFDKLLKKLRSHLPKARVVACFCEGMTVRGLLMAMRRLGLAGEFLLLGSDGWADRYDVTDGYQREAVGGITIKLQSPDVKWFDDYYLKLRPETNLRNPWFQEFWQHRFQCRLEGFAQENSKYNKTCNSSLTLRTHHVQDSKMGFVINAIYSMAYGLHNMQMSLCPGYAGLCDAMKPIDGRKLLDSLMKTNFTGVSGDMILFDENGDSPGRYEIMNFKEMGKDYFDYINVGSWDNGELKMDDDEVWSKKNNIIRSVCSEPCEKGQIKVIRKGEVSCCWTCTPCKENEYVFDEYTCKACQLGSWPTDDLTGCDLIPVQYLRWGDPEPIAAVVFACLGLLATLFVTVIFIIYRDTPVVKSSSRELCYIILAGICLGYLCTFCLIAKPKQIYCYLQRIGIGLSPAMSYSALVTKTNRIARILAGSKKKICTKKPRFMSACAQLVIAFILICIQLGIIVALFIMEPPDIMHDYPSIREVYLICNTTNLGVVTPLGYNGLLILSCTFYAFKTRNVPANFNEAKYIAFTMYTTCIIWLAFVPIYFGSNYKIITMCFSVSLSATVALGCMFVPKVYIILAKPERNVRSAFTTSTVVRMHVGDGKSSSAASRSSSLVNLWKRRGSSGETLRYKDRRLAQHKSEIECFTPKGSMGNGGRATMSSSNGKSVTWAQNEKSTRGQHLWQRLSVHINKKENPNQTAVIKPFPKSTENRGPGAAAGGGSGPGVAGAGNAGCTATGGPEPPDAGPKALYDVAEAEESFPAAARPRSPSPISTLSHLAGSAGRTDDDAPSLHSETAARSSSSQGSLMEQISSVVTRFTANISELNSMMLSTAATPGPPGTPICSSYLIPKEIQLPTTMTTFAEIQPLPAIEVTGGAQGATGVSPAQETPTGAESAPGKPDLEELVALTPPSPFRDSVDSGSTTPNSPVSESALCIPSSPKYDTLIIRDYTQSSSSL

SMILES strings stand for the structures.

Broadly, the Ki is a dissociation constant, usually derived from enzyme kinetics or from competition with a known ligand. Low readings indicate a stronger hold on the target, high ones a looser hold on the target.

For this test, the target named is MPEP site on mGlu5 (Rattus norvegicus, UniProt P31424). Nature of the test: [3H]methoxyPEPy radioligand binding, membranes of rat mGlu5 HEK293 cells.

Compound `Cc1cccc(C#Cc2ccccc2)n1` [MPEP, 2-methyl-6(phenylethynyl)pyridine, reference compound] showed a Ki of 35 ± 10.4 nM.
